Screens (PubChem BioAssay)
Only some compounds are listed: those with a hit (about 0.59% of all), similar ones and a draw of the others.
AT treatment = qHTS Assay for Identifying a Potential Treatment of Ataxia-Telangiectasia. F2112 A-T fibroblasts, KAP-1 phosphorylation AlphaLISA; neocarzinostatin DNA damage 30 min before lysis. Potency, µM (series often up to 57.5 µM), for inactives: at the top dose activation, hits mostly activators. 0.19% of 320,000 active. AID 485349, 2010; active = well fitted activation curve with a large enough effect; inconclusive = small, poorly fitted or top-dose-only effect; inactive = no such curve, though single readings can be large or run the other way; note: potency is the fitted concentration of half-maximal effect; % of control where 0% means no effect; nearly all actives have a fitted effect of over 45% in size
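ATM-like activity read as KAP-1 phosphorylation via AlphaLISA donor/acceptor antibody pairs after lysis and 6 hr at 25C. Cells were ATM-null patient fibroblasts (F2112, hTERT), dosed 60 min, then exposed to the DSB inducer NCS for 30 min.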
Rango dissoc inh = qHTS Assay for Inhibitors of RanGTP induced Rango (Ran-regulated importin-beta cargo) - Importin beta complex dissociation. Biochemical FRET Rango-importin beta, RanGTP-induced dissociation. 0.071% of 340,000 active. Snurportin-1 (Homo sapiens) + GTP-binding nuclear protein Ran (Homo sapiens) + Importin …. Potency, µM (doses to about 46.1 µM), without a hit: at the highest dose activity change, negative = inhibition. AID 540253, 2011; note: potency is the fitted concentration of half-maximal effect; % of control where 0% means no effect; nearly all actives have a fitted effect of over 45% in size
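Rango FRET biosensor (snurportin-1 IBB flanked by N-terminal EYFP and C-terminal CFP10) at 0.1 uM, with 0.25 uM importin beta in PBS, 1mM DTT, 0.02% Tween-20, 0.1% BSA. 0.6 uM Ran, 2mM GTP and 0.2 uM RCC1 were then added for 45 min at room temperature. Inhibition read as loss of FRET rise.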
Rango-impB inh = qHTS Assay for Inhibitors of Rango (Ran-regulated importin-beta cargo) - Importin beta complex formation; Rango CFP/YFP FRET sensor + importin beta, 45 min; Potency, µM (top dose mostly 92.2 µM), for the others: top-dose inhibition of complex formation; 0.031% of 340,000 active; Importin subunit beta-1 (Homo sapiens), Q14974;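 note: potency is the fitted concentration of half-maximal effect; 0% = DMSO wells and 100% = buffer wells lacking importin beta; nearly all actives have a fitted effect of over 15% in size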
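FRET biosensor (snurportin 1 IBB flanked by EYFP and cerulean), 50 nM, with compound 5 min, then 0.125 microM importin beta in PBS, 1 mM DTT, 0.02% Tween-20, 0.1% BSA. CFP/YFP ratio read after 45 min at room temperature; pre-read flags interference.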
IL-2 act = qHTS of IL-2 Activators; IL-2 activation reporter assay, cell-based qHTS; stimulated with anti-CD3/CD4/CD28 beads; in transgenic mouse T cells; activation, % (series mostly up to about 46 µM); 0.065% of 360,000 active; AID 652025, 2013; in the data active = activation above about 50%; inconclusive = mostly about 30% to 49%; note: 0% is about no effect
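Unstimulated transgenic mouse T cells; 60-min compound exposure; bead-based TCR/CD4/CD28 stimulation; 18 h culture, 37 degrees C; dual fluorescence (EGFP, DsRed) plate cytometry.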
PKM2 act = qHTS Assay for Activators of Human Muscle isoform 2 Pyruvate Kinase. 0.34% of 260,000 active. Pyruvate kinase PKM (Homo sapiens), P14618. Potency, µM (doses to about 57.5 µM), inactives show at the highest dose activation, hits mostly activators. purified PKM2, Kinase-Glo ATP luminescence, activation; response scale: 0% is enzyme alone, no compound; active = well fitted activation curve with a large enough effect; inconclusive = small, poorly fitted or top-dose-only effect; inactive = no such curve, though single readings can be large or run the other way; note: potency is the fitted concentration of half-maximal effect; % is set by controls: 0 for no effect and ±100 for the full control effect; nearly all actives have a fitted effect of over 55% in size
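Purified hPK-M2 (>95% pure) converted ADP (0.1 mM final) to ATP with 0.5 mM PEP in 50 mM imidazole pH7.2, KCl, MgCl2, Tween 20, BSA; 1 h at room temperature. ATP detected by Kinase-Glo luminescence.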
* = called active by the depositor; ? = inconclusive; . = no result; ! = not active in a repeat. Unless noted, calls come from the whole dose curve.

The chains behind the UniProt entries cited, without tags or fusion partners.
Importin subunit beta-1 (Homo sapiens), Q14974, UniProt Q14974, whole entry, looked up: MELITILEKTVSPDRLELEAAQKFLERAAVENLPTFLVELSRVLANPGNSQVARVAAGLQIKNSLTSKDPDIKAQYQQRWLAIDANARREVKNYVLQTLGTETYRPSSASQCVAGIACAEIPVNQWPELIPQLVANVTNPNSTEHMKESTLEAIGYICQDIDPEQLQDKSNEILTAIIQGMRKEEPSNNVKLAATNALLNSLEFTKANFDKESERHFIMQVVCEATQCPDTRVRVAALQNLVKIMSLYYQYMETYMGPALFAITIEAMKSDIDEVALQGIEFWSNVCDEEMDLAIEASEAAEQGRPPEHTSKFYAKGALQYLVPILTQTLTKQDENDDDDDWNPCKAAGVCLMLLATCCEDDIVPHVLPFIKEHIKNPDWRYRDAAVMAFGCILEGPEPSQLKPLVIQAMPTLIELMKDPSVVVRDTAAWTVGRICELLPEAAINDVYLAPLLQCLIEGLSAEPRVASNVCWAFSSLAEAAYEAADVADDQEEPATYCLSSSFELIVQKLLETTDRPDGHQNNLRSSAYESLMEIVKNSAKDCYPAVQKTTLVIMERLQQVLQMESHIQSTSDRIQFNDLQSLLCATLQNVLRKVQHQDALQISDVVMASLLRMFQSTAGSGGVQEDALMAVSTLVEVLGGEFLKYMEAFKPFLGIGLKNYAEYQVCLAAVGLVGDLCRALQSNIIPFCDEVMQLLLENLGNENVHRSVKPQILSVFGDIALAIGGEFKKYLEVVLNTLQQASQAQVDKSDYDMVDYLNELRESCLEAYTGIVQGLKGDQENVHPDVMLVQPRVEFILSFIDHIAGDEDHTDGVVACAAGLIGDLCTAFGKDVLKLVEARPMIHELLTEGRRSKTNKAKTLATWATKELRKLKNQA
Pyruvate kinase PKM (Homo sapiens), P14618, UniProt P14618, whole entry, looked up: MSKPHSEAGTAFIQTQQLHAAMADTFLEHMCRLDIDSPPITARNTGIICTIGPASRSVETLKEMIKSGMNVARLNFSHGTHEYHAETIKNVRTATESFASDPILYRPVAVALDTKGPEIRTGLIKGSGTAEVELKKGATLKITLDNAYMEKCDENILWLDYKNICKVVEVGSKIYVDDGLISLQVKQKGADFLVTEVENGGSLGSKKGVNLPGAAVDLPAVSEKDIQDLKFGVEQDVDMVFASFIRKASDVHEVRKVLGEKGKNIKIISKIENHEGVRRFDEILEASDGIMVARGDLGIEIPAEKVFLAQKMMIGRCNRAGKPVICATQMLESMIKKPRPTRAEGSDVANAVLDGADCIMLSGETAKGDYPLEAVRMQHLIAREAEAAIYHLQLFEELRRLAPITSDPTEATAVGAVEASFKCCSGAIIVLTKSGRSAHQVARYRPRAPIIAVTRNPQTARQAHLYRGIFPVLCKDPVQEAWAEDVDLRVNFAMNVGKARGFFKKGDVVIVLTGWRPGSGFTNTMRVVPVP

Keys – A = AT treatment; B = Rango dissoc inh; C = Rango-impB inh; D = IL-2 act; E = PKM2 act
#1 CC(Cc1ccccc1)NC(N)=O (stereo not drawn)
  A: 4% | B: 7% | C: -1% | D: 0 | E: 13%

#2 CC(Cc1ccccc1)NC(=O)/C=C/c1ccc(Cl)cc1 (stereo not drawn)
  A: 1% | B: -11% | C: -7% | D: 87* | E: 2%

#3 COCCCNC(=O)c1c(NC(=O)c2ccccc2)n(Cc2ccccc2)c2nc3ccccc3nc12
  A: . | B: ? | C: ? | D: 68* | E: .

#4 C[C@@H]1C(=O)O[C@H]2CC34[C@H]5C[C@@H](C(C)(C)C)[C@]36[C@@H](OC(=O)[C@@H]6O)O[C@@]4(C(=O)O5)[C@]21O (stereo partly drawn)
  A: 6% | B: 20% | C: -4% | D: -1 | E: .

#5 Cn1c(=O)oc2cc(S(=O)(=O)N3CCc4ccccc43)ccc21
  A: 1µM* | B: 16% | C: -3% | D: 1 | E: ?

#6 CC1=CC2/C=C(\C)CCC(O)C(O)/C=C/C(=O)C23C(=O)NC(CC(C)C)C3C1C (stereo not drawn)
  A: 20% | B: -10% | C: -2% | D: -4 | E: 2%

#7 C/C1=C\[C@@H](C)C/C=C/[C@H]2[C@@H]3O[C@]3(C)[C@@H](C)[C@H]3[C@H](Cc4c[nH]c5ccccc45)NC(=O)[C@]32C(=O)/C=C/C(=O)[C@@H]1O
  A: 40µM* | B: -15% | C: ? | D: 0 | E: ?

#8 CCCCCCC[n+]1ccc(-c2cc[n+](CCCCCCC)cc2)cc1
  A: -5% | B: 0% | C: 5% | D: 0 | E: 6%

#9 CCCCCCCCCCCCCCCC[n+]1ccccc1
  A: . | B: ? | C: 65µM*! | D: 0 | E: .

#10 CC(=O)N1C[C@H](O)C[C@H]1C(=O)O
  A: ? | B: -1% | C: 1% | D: 0 | E: .

Record cards, as listed above. Values in the order: AT treatment	Rango dissoc inh	Rango-impB inh	IL-2 act	PKM2 act
CC(Cc1ccccc1)NC(=O)/C=C/c1ccc(Cl)cc1 (stereo not drawn) is entered as 1%	-11%	-7%	87*	2%
CCCCCCC[n+]1ccc(-c2cc[n+](CCCCCCC)cc2)cc1 is entered as -5%	0%	5%	0	6%
C/C1=C\[C@@H](C)C/C=C/[C@H]2[C@@H]3O[C@]3(C)[C@@H](C)[C@H]3[C@H](Cc4c[nH]c5ccccc45)NC(=O)[C@]32C(=O)/C=C/C(=O)[C@@H]1O is entered as 40µM*	-15%	?	0	?

(listing goes on)
Keys – A = AT treatment; B = Rango dissoc inh; C = Rango-impB inh; D = IL-2 act; E = PKM2 act
#11 COC(=O)[C@@]1(Cc2ccccc2)[C@H]2c3cc(C(=O)N(C)C)[nH]c3C[C@H]2CN1C(=O)c1ccccc1
  A: . | B: . | C: . | D: . | E: 7%

#12 COc1ccc(N2C(=O)/C(=C/c3cccs3)C(=O)NC2=S)cc1
  A: -14% | B: -28% | C: ? | D: -5 | E: 14µM*

#13 COc1ccc(N2C(=O)/C(=C/C=C/c3ccccc3[N+](=O)[O-])C(=O)NC2=S)cc1
  A: -2% | B: 7% | C: -1% | D: 0 | E: 20µM*

#14 CCOC(=O)c1c(/N=C/C2C(=O)NC(=O)NC2=O)sc2c1CCC2
  A: -5% | B: ? | C: ? | D: 76* | E: 5%

#15 Nc1c(Br)cc2c3c(cccc13)-c1ccccc1-2
  A: . | B: ? | C: ? | D: 82* | E: .

#16 COc1ccc(N2C(=O)NC(=O)/C(=C\c3cn(C)c4ccccc34)C2=O)cc1
  A: -3% | B: 9% | C: 0% | D: 2 | E: .

#17 COC(=O)Cn1cc(/C=C2\C(=O)NC(=O)N(c3ccc(OC)cc3)C2=O)c2ccccc21
  A: -7% | B: -3% | C: 0% | D: 92* | E: .

#18 Cc1c(S(=O)(=O)Nc2cccc(Cl)c2)c(=O)n(C)c(=O)n1C
  A: 4% | B: 11% | C: ? | D: 2 | E: ?

#19 C=CCN1C(=O)/C(=C/c2ccc(N3CCOCC3)o2)C(=O)NC1=S
  A: -8% | B: 1% | C: 58µM* | D: 1 | E: -6%

#20 Cc1cc(C)cc(N2C(=O)/C(=C\c3ccc(N4CCN(C)CC4)o3)C(=O)NC2=S)c1
  A: -31% | B: ? | C: 52µM* | D: 0 | E: -10%

Looked up above:
AT treatment, entry 20 reads -31%
AT treatment, entry 14 reads -5%
Rango-impB inh, entry 13 reads -1%

(continued)
Keys – A = AT treatment; B = Rango dissoc inh; C = Rango-impB inh; D = IL-2 act; E = PKM2 act
#21 Cc1ccc(/C=C2\C(=O)NC(=S)N(c3ccc(F)cc3)C2=O)o1
  A: 7% | B: ? | C: ? | D: -1 | E: 8%

#22 Cc1cc(/C=C2\C(=O)NC(=O)N(c3cccc(Br)c3)C2=O)c(C)n1C
  A: 1% | B: 2% | C: ? | D: 68* | E: -5%

#23 Cc1cc(/C=C2/C(=O)NC(=O)N(c3ccc(Br)cc3)C2=O)c(C)n1C
  A: -6% | B: ? | C: ? | D: 10 | E: 1%

#24 CC(C)n1c(O)c(C2c3cc(Cl)ccc3Oc3[nH]c(=O)n(C(C)C)c(=O)c32)c(=O)[nH]c1=O (stereo not drawn)
  A: -6% | B: 20% | C: -6% | D: -2 | E: 14µM*

#25 CC(=O)c1c(O)n(-c2cccc(Cl)c2)c(=O)[nH]c1=O (tested in a mixture with another compound)
  A: -3% | B: -6% | C: ? | D: 0 | E: 1%

#26 O=C1NC(=O)N(c2ccccc2)C(=O)/C1=C/c1ccc(Sc2ccccc2)o1
  A: 6% | B: -19% | C: ? | D: 96* | E: 28µM*

#27 COP(=O)(OC)c1nc(-c2cccc3ccccc23)oc1N1CCCCC1
  A: 22% | B: -11% | C: ? | D: 0 | E: -10%

#28 COP(=O)(OC)c1nc(-c2ccc([N+](=O)[O-])cc2)oc1N1CCCCC1
  A: 3% | B: 5% | C: 29µM* | D: 2 | E: .

#29 CCCc1cc2c(n1CCO)C(C)C1CN(C(=O)c3ccccc3)C(C)(C(=O)OC)C21 (stereo not drawn)
  A: . | B: . | C: . | D: . | E: 1%
